Reference: patent US10017462B1, “Antimicrobial poly(guanylurea)s” (THE FLORIDA INTERNATIONAL UNIVERSITY BOARD OF TRUSTEES, priority 2018, dated 2018)

Each substance was assayed on human red blood cells (RBCs).
Work on Poly(guanylurea piperazine) [PGU-P-8K] yielded an HC50 of 394 µg/mL. Poly(guanylurea piperazine) [PGU-P-3K] gave an HC50 greater than 2000 µg/mL. Work on Poly(guanylurea piperazine) [PGU-P-14K] yielded an HC50 of 504 µg/mL.
